What was measured:
Settings in all cases: Dosage 240 g a.i./ha, after 4 weeks in greenhouse, fresh weight control rate
[1] = tested on: Monocotyledonous and dicotyledonous weed; test: Pre-emergence test on weeds (greenhouse, sprayed immediately after sowing)
[2] = tested on: Zea mays; test: Pre-emergence test, crop damage (greenhouse, sprayed immediately after sowing)
[3] = tested on: Triticum aestivum; test: as above

Compound	activity level of plant damage (growth control rate), Digitaria sanguinalis [1]	activity level of plant damage (growth control rate), Lolium multiflorum [1]	activity level of plant damage (growth control rate), Setaria viridis [1]	activity level of plant damage (growth control rate), Zea mays [2]	activity level of plant damage (growth control rate), Triticum aestivum [3]	activity level of plant damage (growth control rate), Descurainia sophia [1]
C=C[C@]1(C(=O)N[C@@H](C)C(=O)N(C)OC)CC(c2cc(C)cc(Cl)c2)=NO1	9	9	9	0	2 (Level 2: growth control rate greater than or equal to 10% and less than 20%)	–
C=CC1(C(=O)N[C@@H](C)C(=O)N(C)OC)CC(c2cccc(F)c2)=NO1 (stereo partly shown)	–	9	–	2 (Level 2: growth control rate greater than or equal to 10% and less than 20%)	2 (Level 2: growth control rate greater than or equal to 10% and less than 20%)	–
CON(C)C(=O)[C@H](C)NC(=O)[C@@]1(CF)CC(c2cc(F)cc(F)c2)=NO1	–	–	–	0	0	6 (Level 6: growth control rate greater than or equal to 70% and less than 80%)
C=C[C@@]1(C(=O)N[C@@H](C)C(=O)N(C)OC)CC(c2cc(C)cc(F)c2)=NO1	5 (Level 5: growth control rate greater than or equal to 50% and less than 70%)	5 (Level 5: growth control rate greater than or equal to 50% and less than 70%)	5 (Level 5: growth control rate greater than or equal to 50% and less than 70%)	0	2 (Level 2: growth control rate greater than or equal to 10% and less than 20%)	–
CC[C@]1(C(=O)N[C@@H](C)C(=O)N(C)OC)CC(c2cc(C(F)(F)F)cc(C(F)(F)F)c2)=NO1	9	5 (Level 5: growth control rate greater than or equal to 50% and less than 70%)	9	0	0	–
C=CC1(C(=O)N[C@H](C)C(=O)NOC)CC(c2cccc(C(F)(F)F)c2)=NO1 (stereo partly shown)	–	–	–	0	2 (Level 2: growth control rate greater than or equal to 10% and less than 20%)	6 (Level 6: growth control rate greater than or equal to 70% and less than 80%)
CC[C@@]1(C(=O)N[C@@H](C)C(=O)N(C)OC)CC(c2cc(C)cc(F)c2)=NO1	–	–	–	0	0	9
C=CC1(C(=O)N[C@@H](C)C(=O)N(C)OCC)CC(c2cc(C)cc(Cl)c2)=NO1 (stereo partly shown)	8 (Level 8: growth control rate greater than or equal to 90% and less than 100%)	–	6 (Level 6: growth control rate greater than or equal to 70% and less than 80%)	0	0	–

Source: EP4837910A1, “ISOXAZOLINE COMPOUND AND PREPARATION METHOD THEREFOR, HERBICIDAL COMPOSITION, AND USE” (dated 2026)
